System: naïve CD4+ T-cells
Experiment: In vitro polarization of naïve CD4+ T-cells with fecal water, ILA or IFNβ, read out by targeted sc-mRNA-seq
Assay type: cell-based, human
Details: Th0 cultures supplemented with IFNβ only
From the text: To better understand the direct effects of bifidobacterial metabolites and enteric cytokines on T-cells, the inventors flow-sorted naïve CD4^+ T-cells from a healthy adult donor and polarized these cells using standard cytokine combinations (Cano-Gamez et al., 2020). The inventors also added fecal waters (1:100 dilution) collected from either B. infantis EVC001 supplemented or control children lacking B. infantis (FIG. 5A). To evaluate the cellular states of polarized T-cells, the inventors applied a targeted multiomics approach quantifying 259 mRNA molecules with known functions in T-cells and 10 surface proteins detected by oligo-coupled antibodies (Abseq™, Rhapsody™, BD Biosciences) (Mair et al., 2020). The UMAP embeddings of cells were largely similar across Th0, Th1 and Th2 conditions but slightly different for Th17 and iTreg states (FIG. 5B). […]
Targeted transcriptome and protein by BD Rhapsody single cell RNA Sequencing. […] Each sample was then washed twice, counted and resuspended in cold BD SampleBuffer, then calculated the cell number in each sample, then pooled the required number of cells from each sample to get approximately 20,000 cells in 620 μl for each cartridge (around 9 samples for each cartridge). […] Quality and quantity of PCR products were determined by using an Agilent 2100 Bioanalyzer and Qubit Fluorometer using the Qubit dsDNA HS Kit (ThermoFisher). […]

B1: IFNβ: interferon beta added to Th0 cultures (10 ng/ml) (protein, UniProt P01574 22-187, looked up)
Interferon beta: MSYNLLGFLQRSSNFQCQKLLWQLNGRLEYCLKDRMNFDIPEEIKQLQQFQKEDAALTIYEMLQNIFAIFRQDSSSTGWNETIVENLLANVYHQINHLKTVLEEKLEKEDFTRGKLMSSLHLKRYYGRILHYLKAKEYSHCAWTIVRVEILRNFYFINRLTGYLRN
  effect on Th1/Th2 skewing of Th0 cultures: did not replicate the effect

From US20240207403A1, “PERSONALIZED IMMUNOTHERAPY USING INTESTINAL METABOLITES” (Evolve Biosystems, Inc., priority 2021, published 2024)
